In patent US8790889B2, “Neuronal stimulation” (The University of Queensland, priority 2009, dated 2014):

Test system: hippocampal precursors
Test: Slice-sphere assay (hippocampal organotypic slices, then neurosphere culture)
Assay type: cell-based, rat
Conditions: slices treated at 100 μM
Experimental: Seven day-old Wistar pups were sacrificed under isoflurane-induced anaesthesia, and the brains were isolated and placed in ice-cold Ringer's solution (NaCl, 118 mM; […] The brain was bisected along the sagittal plane and the hippocampi were separated from the overlying cortex. The hippocampi were cut into transverse slices of 300 μm thickness using a tissue slicer (Stoelting, Wood Dale, Ill.). 6-7 slices were then transferred onto a single 0.4 μm Millicell-CM membrane filter (Millipore), and the filters were placed in a 6-well plate containing 1 ml of serum-free NeuroCult NSC basal medium with NeuroCult proliferation supplements (StemCell Technologies) and 2% bovine serum albumin (Invitrogen). D-glucose (Sigma-Aldrich) was added to the medium to a final concentration of 5 mM. Four filters, each containing 6-7 hippocampal slices, were generated from a single animal. Plates were incubated at 37° C. in a humidified 5% CO2 incubator and the slices were cultured for 6 days. To assess the influence of specific compounds on hippocampal precursor proliferation in the slice culture, compounds were added to the complete medium at the doses described below. Two filters were treated with the compounds for each dose per experiment. […] The total number of viable cells in an aliquot was counted on a haemocytometer based on the exclusion of 0.08% trypan blue (Sigma-Aldrich). […]

Structure (SMILES): CCOc1ccccc1OC(c1ccccc1)C1CNCCO1 (stereo not shown) [reboxetine]
- increase in neurosphere frequency / precursor activity: > 2.5 fold
